Earlier results in patent publication US20150132388A1, “COMPLEXES OF FULVESTRANT AND ITS DERIVATIVES, PROCESS FOR THE PREPARATION THEREOF AND PHARMACEUTICAL COMPOSITIONS CONTAINING THEM” (Druggability Technologies Holdings Limited, priority 2013, published 2015).

Amino acid sequences for entries named in this document (tags omitted).
UniProt P03372, whole entry: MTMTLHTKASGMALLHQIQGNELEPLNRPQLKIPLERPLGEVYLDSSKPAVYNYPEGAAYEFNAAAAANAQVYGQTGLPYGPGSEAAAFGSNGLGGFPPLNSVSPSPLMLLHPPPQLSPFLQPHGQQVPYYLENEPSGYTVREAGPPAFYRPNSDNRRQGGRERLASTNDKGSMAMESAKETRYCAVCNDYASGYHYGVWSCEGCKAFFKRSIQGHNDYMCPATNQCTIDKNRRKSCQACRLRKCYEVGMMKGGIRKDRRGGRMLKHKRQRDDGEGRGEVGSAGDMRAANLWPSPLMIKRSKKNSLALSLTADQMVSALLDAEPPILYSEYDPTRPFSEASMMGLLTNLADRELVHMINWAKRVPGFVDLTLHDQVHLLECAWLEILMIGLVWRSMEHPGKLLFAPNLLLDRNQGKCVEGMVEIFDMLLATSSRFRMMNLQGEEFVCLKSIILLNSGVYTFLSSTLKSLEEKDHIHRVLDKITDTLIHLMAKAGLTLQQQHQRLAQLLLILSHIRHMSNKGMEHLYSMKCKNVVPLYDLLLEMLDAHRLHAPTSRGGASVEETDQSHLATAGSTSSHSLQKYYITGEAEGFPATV

Biological target: estrogen receptor (Homo sapiens, UniProt P03372)
Conditions: competitive binding; cited from earlier work

7-alpha-[9-(4,4,5,5,5-penta fluoropentylsulphinyl)nonyl]estra-1,3,5-(10)-triene-3,17 beta-diol [Fulvestrant]
Affinity for the estrogen receptor: affinity comparable to that of estradiol
